# Binding of CDR-mutated scFvs to a peptide of the spike HR2 region

Values reported by Li et al. 2023, doi:10.1038/s41467-023-39022-2 (FLAb copy).

Binding partner: SARS-CoV-2 spike HR2 peptide, sequence PDVDLGDISGINAS.

Parent: Ab-14, a human scFv built as VH, the linker GGGGSGGGGSGGGGS, VL. Only the CDRs of the light chain vary.
VH: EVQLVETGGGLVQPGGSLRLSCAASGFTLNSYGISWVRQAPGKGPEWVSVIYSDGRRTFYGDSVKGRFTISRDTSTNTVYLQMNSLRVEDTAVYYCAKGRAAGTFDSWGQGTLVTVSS
VL: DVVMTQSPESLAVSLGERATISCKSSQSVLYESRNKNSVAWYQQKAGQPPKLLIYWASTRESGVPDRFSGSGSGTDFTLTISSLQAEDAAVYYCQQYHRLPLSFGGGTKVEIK

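The starting antibody came from a phage panning campaign against this peptide. These sequences belong to a second round, designed from the earlier measurements on random variants of the parent. Group labels follow the data file (Ctrl: baseline library sampled from a position-specific scoring matrix, with some repeated check sequences; Rand: our label for a block that the file lists under HC and that is probably the random mutants of the ten best first-round binders; En: ensemble of fine-tuned language models; GP: Gaussian process model; HC: hill climbing; Gen: genetic algorithm; Gibbs: Gibbs sampling; a sequence that several methods proposed may carry one label only). Affinity was read by AlphaSeq, a pooled yeast mating assay with surface-displayed partners. Mating (16 h, 30 °C) was followed by selection of diploids and sequencing of their barcodes. Scores were corrected for input abundance and mapped to Kd with protein pairs of known affinity run in the same pool. Each pool was mated in six replicate cultures.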

Variants are written as CDR1, CDR2 and CDR3 of the light chain (limits as in the source). Parent: KSSQSVLYESRNKNSVA, WASTRES, QQYHRLPLS. Each Kd is an estimate from the mating assay, the geometric mean of the replicates in which the pair was seen; lower is stronger. A pair that was not seen in any replicate is written "no signal"; this usually means weak binding, but a binder can also be missed. Three control strains display no target. For all light chain designs, 4% of the pairings with them gave a signal, with a median of 430 nM and one signal in twenty below 38 nM, so weak values seen in few replicates may be background.

apparent Kd | replicates with signal | CDR-L1 | CDR-L2 | CDR-L3 | group
110 nM | 6/6 | QLAVNRLMNYTMNNAIA | GKTLRVD | QQYARLPLS | En_Gibbs
160 nM | 1/6 | ESSQSVAYESRNKNSVA | WASTRES | QQYHRLPLS | Ctrl
1.2 nM | 6/6 | KSSISYLYESMNKNSVA | NGSTRES | QQYHRLPLS | GP_HC
1.8 nM | 6/6 | KISQMQRVGATHSNSIA | EEVTRAK | QQYHRLPLS | En_Gen
4.9 nM | 6/6 | KSDQGTLYESRNKNSVA | GASTRES | QQYHRLPLS | GP_HC
470 nM | 1/6 | KSSQSVLWESRGKNSVA | WASTRES | QQYHRLPLS | Ctrl
3.4 nM | 6/6 | KSSQSVLYESRNANSVA | EASTRES | QQYHRLPLS | Ctrl
15 nM | 6/6 | LLQQDFYNERSQANAVA | DGNQLAS | QDYARLPLV | En_Gibbs
17 nM | 4/6 | SMMFDTSDNYHERNNVA | DQAAIMA | QQYSILPLS | En_Gibbs
7.1 nM | 6/6 | MMSQVTALGQRHRNNVA | QTSTREP | QQYDRLPLV | En_Gen
6.8 nM | 6/6 | KSSWLVLFESRNKNSVA | DASTRSS | QQYHRLPLS | GP_HC
no signal | 0/6 | KSSQSVLYESRYKNSVA | WASKRES | QQYHRLPLS | Ctrl
200 nM | 4/6 | KSSKSVPYESRNKNSVA | WASTRES | QQYHRLPLS | Ctrl
1.2 nM | 6/6 | KSSISYLEESRNKNSVA | EASTREK | QQYHRLPLS | GP_HC
620 pM | 6/6 | KLDQSVLYESRNKNAVA | EASTRES | QQYHRLPLS | GP_Gen
83 nM | 6/6 | KSSQSVMYESRNKNSVA | RASTRES | QQYHRLPLS | Ctrl
1.5 µM | 3/6 | QSSQSWLYNSRNKNSVA | WASTRES | QQYHRLPLS | Ctrl
580 pM | 6/6 | KLSQSELYESRNKNSVA | EASTREL | QQYHRLPLS | GP_Gen
47 nM | 1/6 | KISQSVLAESRNKNSVA | EASTRES | QQPHRLPLS | Ctrl
3.2 nM | 6/6 | KLSKMVMYESRNKNSVA | SASTRYE | QQYHRLPLS | GP_Gibbs
93 nM | 4/6 | KSSQSVLYESRNKNSVA | WTSTREE | QQYHWLPLS | Ctrl
no signal | 0/6 | KSSQSWLYESRNKNSVA | WASTHES | QQYHRLPLS | Ctrl
460 pM | 6/6 | KLQQSNLYESRNKNSVA | NASYRES | QQYHRLPLS | GP_Gen
100 nM | 5/6 | KVSEFMKGLMMRTDSIA | DNETREN | QQYDRLPLS | En_Gen
4.1 nM | 6/6 | MLSDTVMQGSYYRNSVA | QESTRAD | QQYHHLPLS | En_HC
2.1 nM | 6/6 | MLGMTVMQGMYSRNNVA | QEETRAE | QQYHHLPLS | En_HC
9.7 nM | 2/6 | KSSQSVLYESRNKNSVA | WASTRES | QQYHRLPLL | Ctrl
7.0 nM | 6/6 | KISQSVLYEDRNKNSVA | WASTRES | QQYHRLPLS | Ctrl
11 nM | 6/6 | KSSQSVLYEDRNKNSVA | EASTRER | QQYHRIPLS | Ctrl
5.8 nM | 6/6 | KLSMITGHMSMSRNNVA | EMETREN | QQYDRLPLS | En_Gen
740 pM | 6/6 | KSSQSVMMESRNANSVA | DASTRES | QQYHRLPLS | GP_HC
5.9 nM | 6/6 | ALSQLMDMTSRNVNSVA | DLTTREN | QQYHRLPLS | En_HC
36 nM | 6/6 | KHSQSVLDESENSNSVA | WASTRES | QQYHRLPLS | Ctrl
18 nM | 6/6 | TIQMFMDNLYHNRNNVA | DTSTLGD | QSYDRLPLS | En_Gen
12 nM | 6/6 | KLSIMYQHTSRQKNNIA | ERSTRES | QQYHHLPLS | En_HC
460 pM | 6/6 | KSSQAFLYESRNKNSVA | DANTRES | QQYHRLPLS | GP_HC
6.3 nM | 6/6 | KQSQSVLYESRNKNSVA | DASWRES | QQYHRLPLM | Rand
20 nM | 5/6 | KSSPSILYESRNKNSVA | WASTRES | QQYHRLPLS | Ctrl
1.7 nM | 6/6 | KLSMGWEMNTRQNHNMA | EASLKDS | QQYNRLPLF | En_Gibbs
no signal | 0/6 | KSSTAVLYESRNKNSVA | WASTRES | QQYHRLPLS | Ctrl
580 pM | 6/6 | KVRQSVLYESRNKNSVA | NASTRES | QQYHRLPLS | GP_HC
390 pM | 6/6 | HLSQSVLYESRNKNSVA | DASTRES | QQYHRLPLS | GP_Gen
1.8 nM | 6/6 | KSSQSFLYESRNKNSVA | GASTRES | QNYHRLPLS | GP_HC
26 nM | 6/6 | KSSSSVLYESENKNSVA | WASTRES | QQYHRLPLS | Ctrl
1.1 nM | 6/6 | KLSQSVWYLERNKNNVA | NASYRES | QQYHRLPLS | GP_Gibbs
4.0 nM | 6/6 | KVPGEQLYESRNKNSVA | EASTRES | QQYHRLPLS | GP_Gibbs
5.0 nM | 6/6 | KISQMVRVGSTHVNSIA | EETTRAK | QQYHRLPLF | En_Gen
250 nM | 2/6 | LLYDSVGTLSRNKNSVA | DNSTRES | QQYDRLPLS | En_HC
13 nM | 6/6 | KFSQSVLYESRTQNRVA | NASTRES | QQYHRLPLS | GP_HC
1.4 nM | 6/6 | VLSQSVLYESRNKNSVA | NASQRLS | QQYHRLPLS | GP_Gen
91 nM | 6/6 | KSSQSVLYESRNKNAVA | WASTRES | QQYHRLPLF | Ctrl
4.3 nM | 6/6 | TIGSTLMYGYRNRNNVA | EVSERLN | QQYDRLPLF | En_Gen
8.5 nM | 4/6 | SSNGNLRMGERNKNHVA | STDVRES | QQYSRLPLT | En_Gibbs
8.1 nM | 6/6 | HMSQVTMYGYWEKNSVA | QTSTREE | QQYDRLPLS | En_HC
71 nM | 6/6 | KFSQSDLYESRNKNSVA | NASYRES | QQYHRLPLS | GP_Gen
18 nM | 6/6 | ASDHTEGSGKNADANVA | GDEQRAP | QQYHHLPLS | En_Gibbs
890 pM | 6/6 | KLSISYLEESRNKNSVA | EASTRES | QQYHRLPLS | GP_HC
no signal | 0/6 | IVSQLMLWGWHAKNSIA | EAQMRLN | QQYDRLPLM | En_Gen
99 nM | 5/6 | KVSQSVLYESRNKNSVA | DASTRHS | QQYHRLHLS | Ctrl
560 nM | 3/6 | QLSLMLNDMDTRMWNVA | EGNQAKE | QDYHRLPLM | En_Gibbs
2.7 nM | 2/6 | KLQLNVVDGWAMHNNIA | GDAHRAR | QQYYHLPLM | En_Gibbs
4.8 nM | 6/6 | KSSESVLYESNNKNSVA | HASTRED | QQYHRLPLS | GP_HC
710 pM | 6/6 | KVSQSMLYESRNKNSVA | NASTRES | QSYHRLPLS | GP_Gen

Picked from the list: the 4 lowest averages where every replicate gave a value.

| CDR-L1 | CDR-L2 | CDR-L3 | group | apparent Kd | replicates with signal |
|---|---|---|---|---|---|
| HLSQSVLYESRNKNSVA | DASTRES | QQYHRLPLS | GP_Gen | 390 pM | 6/6 |
| KSSQAFLYESRNKNSVA | DANTRES | QQYHRLPLS | GP_HC | 460 pM | 6/6 |
| KLQQSNLYESRNKNSVA | NASYRES | QQYHRLPLS | GP_Gen | 460 pM | 6/6 |
| KVRQSVLYESRNKNSVA | NASTRES | QQYHRLPLS | GP_HC | 580 pM | 6/6 |

Of ten entries with the parent sequence, four were seen in most replicates (averages 2.2 nM to 240 nM), three in one and three in none, so single entries are noisy. Values of this round are not directly comparable with the first-round values of the same sequences. The authors averaged sequences with at least three values out of six and counted those with two or fewer as poor binders.